The text below walks through data of PubChem BioAssay AID1554 (Broad Institute, 2009).

The structures appear in SMILES notation. The entries are a selection whose mix differs from that of the whole data set. The source made the active and inactive calls. Rule as the data show it: active = inhibition above about 50%; inconclusive = no clear call, values can overlap the other calls; inactive = below that.

The experiment is described as follows: PubChem AID 1554. The conditions noted are these: BJeLR (HRASV12) viability, CellTiter-Glo ATP luminescence, 48 h; hits give high values; concentration not given here. A general note: ATP-based viability assays read luminescence as a measure of living cells.
A word on the inhibition: it is the relative decrease from the control value, in per cent. Regarding `C[As](=O)(O)c1cccc(C(=O)O)c1`, the inhibition was inactive: -1.95%.

On to `O=[As](O)(c1ccc(O)cc1)c1ccccc1O`, for which the inhibition is inactive: -0.851%.

Turning to `O=[N+]([O-])c1cc([N+](=O)[O-])c(Nc2cccnc2)c([N+](=O)[O-])c1`, the inhibition is inactive: 3.89%.

For `COc1cc(I)ccc1[As](=O)(O)O`, the inhibition is inactive: -3.85%.

`COc1ccc2nc(NP(=O)(c3ccccc3)c3ccccc3)sc2c1`: the inhibition was inactive: 3.98%.

For `CCN(CC)CCCOC(=O)C(O)(c1ccccc1)c1ccccc1`, the inhibition was inactive: 3.86%.

For the compound `Cc1cc(=O)[nH]c(N[N+](=O)[O-])n1`, the inhibition is inactive: 3.71%.

Take `O=C(OC1CN2CCC1CC2)C12CC3CC(CC(C3)C1)C2` (stereo not given): the inhibition was inactive: 5.56%.

Take `Cc1c2c(nc3ccccc13)SC(C(Cl)Cl)C2` (stereo not given): the inhibition was inactive: -0.953%.

Consider `CP(=O)(Nc1ccccn1)Oc1ccc(Cl)cc1` (stereo not given), for which the inhibition is inactive: -1.74%.

Consider `CCC(C)N(CC(C)C)C(=S)SC(NC(C)=O)C(Cl)(Cl)Cl` (stereo not given), for which the inhibition was inactive: 9.22%.

As to `O=[N+]([O-])c1cc([N+](=O)[O-])c(O)c([N+](=O)[O-])c1.c1ccc(Oc2ccncc2)cc1`, the inhibition is inactive: 3.93%.

For the compound `CCOC(=O)c1ccc(NP(C)(=O)Oc2ccc(OC)cc2)cc1` (stereo not given), the inhibition was inactive: 2.61%.

For the compound `CCOC(=O)c1ccc(NC(=O)C(C)(CCl)SC)cc1` (stereo not given), the inhibition was inactive: -9.17%.

On to `O=C(OC1CN2CCC1CC2)c1cccc([N+](=O)[O-])c1` (stereo not given), for which the inhibition is inactive: -11.2%.

On to `CCOP(C)(=S)SCC(=O)NC(C)C(=O)O` (stereo not given), for which the inhibition was inactive: -5.79%.

For `O=C(Nc1ccncc1[N+](=O)[O-])c1ccc([N+](=O)[O-])cc1[N+](=O)[O-]`, the inhibition is inactive: -3.69%.

Regarding `Cc1cc(C)cc(OP(C)(=O)Nc2ccc(SC(F)(F)F)cc2)c1` (stereo not given), the inhibition is inactive: 4.69%.

In the case of `CCc1ccc(OP(C)(=O)N2CCN(c3ccc([N+](=O)[O-])cc3)CC2)cc1` (stereo not given), the inhibition was inactive: 6.05%.

For `CP(=O)(NC(=O)Nc1ccccc1)Oc1ccccc1` (stereo not given), the inhibition was inactive: -19.9%.

For the compound `O=C(COc1ccccc1)OC1CN2CCC1CC2` (stereo not given), the inhibition is inactive: 1.89%.

With `CP(=O)(Oc1ccccc1)OC(c1ccccc1)C(F)(F)F` (stereo not given), the inhibition is inactive: -4.39%.

Consider `CP(=O)(Nc1ccc(SC(F)(F)F)cc1)Oc1ccc(Cl)cc1` (stereo not given), for which the inhibition is inactive: -7.76%.

With `Cc1cccc(C)c1OP(C)(=O)Nc1ccc(SC(F)(F)F)cc1` (stereo not given), the inhibition was inactive: -8.98%.

On to `COP1(=S)c2c(C)nn(CCC#N)c2N=C(c2ccc(F)cc2)N1C` (stereo not given), for which the inhibition was inactive: 13.4%.

Consider `O=[N+]([O-])c1ccc(Nc2ccc(Oc3ccc([N+](=O)[O-])cc3[N+](=O)[O-])cc2)c([N+](=O)[O-])c1`, for which the inhibition was inactive: -1.39%.

Consider `CP(=O)(Nc1ccccc1Br)Oc1ccccc1` (stereo not given), for which the inhibition was inactive: -10.5%.

`COc1ccccc1OP(C)(=O)Nc1ccccc1` (stereo not given): the inhibition was inactive: -6.94%.

Take `Cc1cc(SC(NC=O)C(Cl)(Cl)Cl)ncn1` (stereo not given): the inhibition was inactive: 3.54%.

As for `O=P(Nc1ccccn1)(c1cccc2ccccc12)c1cccc2ccccc12`, the inhibition was inactive: 7.92%.

In the case of `CCOC(=O)Nc1cccc([As](=O)(O)O)c1`, the inhibition was inactive: 2.91%.

Consider `CP(=S)(Nn1cnnc1)Oc1ccccc1` (stereo not given), for which the inhibition was inactive: -12.1%.

Take `Cc1cc(SC(NC(=O)c2ccccc2)C(Cl)(Cl)Cl)nc(C(C)C)n1` (stereo not given): the inhibition was inactive: -2.84%.

Regarding `CCCCOc1ccc(C(=O)NCC2(N3CCCCC3)CCCCC2)cc1OC`, the inhibition was inactive: -10.7%.

Regarding `CCOC(=O)Nc1ccc([As](=O)(O)O)c(O)c1`, the inhibition was inactive: -7.77%.
